Source: US20160237164A1 (VIVENTIA BIO, published 2016)

How the values were obtained:
[1] = target: T1, Epithelial Cell Adhesion Molecule (EpCAM) (human, UniProt P16422 24-314); test: flow
T1 chain: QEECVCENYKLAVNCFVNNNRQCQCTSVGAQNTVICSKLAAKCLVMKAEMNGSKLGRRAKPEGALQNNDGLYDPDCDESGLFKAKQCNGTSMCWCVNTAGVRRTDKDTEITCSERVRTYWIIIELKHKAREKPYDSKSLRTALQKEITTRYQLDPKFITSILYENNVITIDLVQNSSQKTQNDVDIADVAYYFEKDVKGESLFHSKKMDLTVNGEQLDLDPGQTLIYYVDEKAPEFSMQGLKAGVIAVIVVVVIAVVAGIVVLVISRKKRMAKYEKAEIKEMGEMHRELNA

[2] = target: T2, Epithelial Cell Adhesion Molecule (EpCAM) (human, UniProt P16422 24-314); test: flow cytometry on Cal-27 cells, fold-increase in median fluorescence over PBS control
T2 construct: whole, on cells; also called 17-1A; KSA
T2 sequence (looked up): T1 chain

B1: VB5-845-DI (de-immunized VB5-845 Fab fragment) (Fab, V domains shown)
VH: EVQLVESGGGLVQPGGSLRLSCAASGYTFTAYGMNWVRQAPGKGLEWMGWINTYTGESTYADSVKGRFTISADTSKNTAYLQMNSLRAEDTAVYYCARFAIKGDYWGQGTLVTVSS
VL: DIQMTQSPSSLSASVGDRVTITCRSTKSLLHSNGITYLYWYQQKPGKAPKLLIYQMSNLASGVPSRFSSSGSGTDFTLTISSLQPEDFATYYCAQNLEIPRTFGTGTKVEIKR
Kd [1]: 1.35 nM | binding result [2]: binds
